Yeast mating assay 1: variants of the scFv Ab-14

The measurements come from Engelhart et al. 2022 (doi:10.1038/s41597-022-01779-4) through the FLAb antibody collection.

Binding partner: SARS-CoV-2 spike HR2 peptide, sequence PDVDLGDISGINAS.

The variants keep the heavy chain, the linker and the frameworks of Ab-14 (scFv order VH, three GGGGS repeats, VL).
VH: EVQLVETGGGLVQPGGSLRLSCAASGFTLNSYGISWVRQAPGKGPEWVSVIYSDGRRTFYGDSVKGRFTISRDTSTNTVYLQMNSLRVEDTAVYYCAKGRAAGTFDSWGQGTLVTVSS
VL: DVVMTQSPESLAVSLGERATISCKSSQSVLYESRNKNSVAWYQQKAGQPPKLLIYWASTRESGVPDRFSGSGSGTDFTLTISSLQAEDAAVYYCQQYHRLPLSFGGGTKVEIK

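Phage display of a naive human antibody library on the peptide gave the parent. Variants in AAYL50 differ from the parent at up to three CDR positions; double and triple changes were sampled at random. Affinity was read by AlphaSeq, a pooled yeast mating assay with surface-displayed partners. Mating (16 h, 30 °C) was followed by selection of diploids and sequencing of their barcodes. Read counts were normalised to the haploid input and turned into Kd by a linear fit to BCL2-family pairs of known affinity, for each replicate. The assay was run in three technical replicates.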

Each variant is given by its three light chain CDRs, as the data file delimits them; those of the parent are KSSQSVLYESRNKNSVA, WASTRES, QQYHRLPLS. The read-out is the apparent dissociation constant on a log10 scale (nM): the lower, the stronger. Replicates are averaged; those with no signal do not enter the mean. Where no diploid with the target was found in that replicate, the entry reads "ND": below detection, most likely a poor binder, though not proof of it.

CDR-L1,CDR-L2,CDR-L3,"log10 Kd, replicates","log10 Kd (nM), mean",empty controls
KSSQSVLYEHRNKNSVA,WASNRES,QQQHRLPLS,ND / ND / ND,ND,0 of 9
CYSQSVLYESRNKNSVA,WASTRES,QPYHRLPLS,ND / ND / ND,ND,0 of 9
KSSQSVLYESRNKNFVA,WASMRES,HQYHRLPLS,ND / ND / ND,ND,1 of 9 (3.88)
KSSQSVLYESRNKGSVA,WASTRSS,QQYHRMPLS,1.36 / 1.48 / 1.22,1.35,4 of 9 (4.63)
KSFQSVLYESRNKNSVA,WASWRES,QPYHRLPLS,ND / ND / ND,ND,1 of 9 (3.40)
KSSQSVLYESRNKNWHA,WASTMES,QQYHRLPLS,ND / ND / 5.36,5.36,3 of 9 (2.99)
KSSQSVLYERRNKNSLA,WASTREW,QQYHRLPLS,3.30 / 2.51 / 3.34,3.05,3 of 9 (3.92)
KSSQSVLYESRNKNSVA,WASTRES,QQYHKLPIS,0.89 / 1.16 / 1.15,1.07,3 of 9 (4.15)
KSEQSVLYESRNKNSVA,WASTRES,QQYHHLPLS,1.31 / 1.37 / 1.25,1.31,1 of 9 (3.88)
KSSQGVLYESRNKNNVA,WASTRES,IQYHRLPLS,1.53 / 1.79 / 1.92,1.75,6 of 9 (4.68)
KVSQEVLGESRNKNSVA,WASTRES,QQYHRLPLS,-0.31 / 0.04 / -0.12,-0.13,3 of 9 (4.90)
KSSQSVLYESRNKNLVA,WASTRES,QQYHPLPNS,4.62 / ND / 3.90,4.26,0 of 9
KSSQSVLYESRNKNQVA,WASTRES,QQYRRLPLL,3.46 / ND / ND,3.46,2 of 9 (3.27)
KSSQSVLYESRNKNSWA,WASTREG,QQYHRLPLS,4.63 / ND / 3.96,4.30,1 of 9 (3.20)
KSFQSSLYESRNKNSVA,WASTRRS,QQYHRLPLS,2.57 / 2.22 / 2.70,2.49,1 of 9 (4.06)
KSSQSHLYESRNKNSVA,WASRRES,QQYHRLPLQ,ND / 2.38 / 3.57,2.98,0 of 9
ASSQSVLYESRNENSVA,WASTLES,QQYHRLPLS,1.93 / 1.97 / 2.26,2.05,1 of 9 (4.44)
KSSWSVAYESRNKNSVA,WASTRES,QQYHRLPLK,0.98 / 1.17 / 1.48,1.21,0 of 9
KSSQSVLNESRNKNSVA,DASTRFS,QQYHRLPLS,0.16 / 0.46 / 0.31,0.31,8 of 9 (5.49)
KSSMSVLYESRNKNSVA,WASTRIS,QQYKRLPLS,2.22 / ND / 1.81,2.01,0 of 9
KLSQSVLYESRNKNSIF,WASTRES,QQYHRLPLS,ND / ND / ND,ND,0 of 9
KSNQGVLYESRNKNSVA,WSSTRES,QQYHRLPLS,1.42 / 1.53 / 1.56,1.50,0 of 9
KSSQSVLYESRNKNSVA,WASTFCS,QQYHREPLS,ND / ND / ND,ND,0 of 9
KSSQSVLYESLNKNSVA,WAFTRES,QPYHRLPLS,1.11 / 1.22 / 1.10,1.14,6 of 9 (4.44)
KSSQSVNYESRNKQSEA,WASTRES,QQYHRLPLS,1.70 / 1.64 / 1.53,1.62,1 of 9 (4.03)
NSSQSVLYESRNKNSVA,WASTRES,QQYLRLPLS,0.95 / 1.19 / 1.16,1.10,1 of 9 (4.66)
KSSQSVLYESRNKNSMA,WASTRES,QQYHRMPCS,2.02 / 1.80 / 1.69,1.84,1 of 9 (5.34)
KSSQSILYESRNKNSVA,WASERES,QQYHRLPLS,1.37 / 1.25 / 1.33,1.32,7 of 9 (4.46)
KSSQSVLYESRNKNSVF,WASQRKS,QQYHRLPLS,ND / ND / ND,ND,0 of 9
RSSQSVLYFSRNKNSVA,WASTREY,QQYHRLPLS,ND / ND / ND,ND,1 of 9 (3.20)
KSSQSVLRESRIKNSVA,WASTRES,QQYHRLPSS,3.41 / 2.93 / 3.60,3.31,3 of 9 (4.71)
KSSQSVLYEIRNKNLVA,WASVRES,QQYHRLPLS,6.27 / 3.81 / 4.94,5.01,7 of 9 (3.93)
KSWQSVLPESRNKNSVA,WASTRES,QFYHRLPLS,2.21 / 2.13 / 2.03,2.12,2 of 9 (3.80)
KSSQSVLYESRNKNSVA,WACTRAS,QQYHRLRLS,ND / 5.35 / 6.06,5.71,3 of 9 (4.02)
KSSQSVLLESRNFNSWA,WASTRES,QQYHRLPLS,2.04 / ND / ND,2.04,0 of 9
KSSQSVLYESRNKGSVA,WASDRES,QQYHRLPLS,2.58 / 1.71 / 1.64,1.98,1 of 9 (3.49)
KSSQSVLYEFRNKNSVA,WASTFES,QQYHRYPLS,ND / 3.44 / ND,3.44,0 of 9
KDSQSVLYESRHKNSVA,WASTRES,QQTHRLPLS,ND / ND / ND,ND,0 of 9
KSSQSVLYESRNVNSVA,WASTRES,VQYHRLPES,1.86 / 1.73 / 1.60,1.73,4 of 9 (4.23)
KSSQSVLYESRNKPSVH,WASTRES,QQYHRLPLS,ND / 3.39 / ND,3.39,3 of 9 (4.61)
KSSMCVNYESRNKNSVA,WASTRES,QQYHRLPLS,0.55 / 0.83 / 0.70,0.69,0 of 9
KSSQSCLYKSRNKNSVA,SASTRES,QQYHRLPLS,ND / 4.30 / ND,4.30,1 of 9 (3.74)
KSIQSVLYESRNKNEVA,WASTRES,QQYHRSPLS,ND / 3.14 / 4.84,3.99,5 of 9 (4.28)
KSSQSVLYESRCKNSVA,WASTRES,QQYHRLPLS,1.32 / 1.53 / 1.53,1.46,2 of 9 (3.38)
KSSQSVLYESRNKNMVA,WASTLEA,QQYHRLPLS,ND / ND / ND,ND,1 of 9 (4.80)
KSSQSKLYECRNKNSVA,WASTRES,QQYHRLPLS,ND / ND / 3.24,3.24,1 of 9 (5.38)
KSSQSVWYESRNSNSVA,WASTRES,QQIHRLPLS,ND / 3.92 / ND,3.92,1 of 9 (3.18)
KSSQSVLYESRNKNSCA,IQSTRES,QQYHRLPLS,4.65 / 4.92 / ND,4.78,3 of 9 (3.69)
KSSQSVLYESRNKNSVA,WASHRES,QQYHRLGLS,1.18 / 1.42 / 1.31,1.30,1 of 9 (3.29)
HSSQSVLLESRNKNSVA,WASTNES,QQYHRLPLS,ND / ND / ND,ND,0 of 9
KSSQSVLYESRNKNSVA,NASTRES,QQYHRHPLA,0.37 / 0.54 / 0.29,0.40,4 of 9 (4.84)

The first 8 variants above that were never detected:

CDR-L1,CDR-L2,CDR-L3,"log10 Kd, replicates","log10 Kd (nM), mean",empty controls
KSSQSVLYEHRNKNSVA,WASNRES,QQQHRLPLS,ND / ND / ND,ND,0 of 9
CYSQSVLYESRNKNSVA,WASTRES,QPYHRLPLS,ND / ND / ND,ND,0 of 9
KSSQSVLYESRNKNFVA,WASMRES,HQYHRLPLS,ND / ND / ND,ND,1 of 9 (3.88)
KSFQSVLYESRNKNSVA,WASWRES,QPYHRLPLS,ND / ND / ND,ND,1 of 9 (3.40)
KLSQSVLYESRNKNSIF,WASTRES,QQYHRLPLS,ND / ND / ND,ND,0 of 9
KSSQSVLYESRNKNSVA,WASTFCS,QQYHREPLS,ND / ND / ND,ND,0 of 9
KSSQSVLYESRNKNSVF,WASQRKS,QQYHRLPLS,ND / ND / ND,ND,0 of 9
RSSQSVLYFSRNKNSVA,WASTREY,QQYHRLPLS,ND / ND / ND,ND,1 of 9 (3.20)

In this assay the parent's reference entry averaged 0.65; its copy inside this library read 1.68. Three control strains display no target. For library AAYL50, 18% of the pairings with them gave a signal, with a median of 4.19 and one signal in twenty below 2.99, so weak values seen in few replicates may be background. The control count says in how many pairings with the empty strains this scFv gave a signal, with their mean in brackets.